These results are taken from US20260384428A1, “NOVEL PRMT5 INHIBITOR AND USE THEREOF” (published 2026).

Each structure is given as a SMILES string. A value given as a limit tells only on which side of the number the result lay.

For assay [1], the system named is HCT-116 MTAP(−/−) deficient cells. The assay can be described thus: Inhibitory activity on the proliferation of HCT-116 MTAP (−/−) deficient cells (Cell-Titer Glo). Particulars: read-out: IC50 HCT-116 MTAP(−/−) deficient cells, 8 days, 37 °C, 0.1% DMSO. The source says:
Test Case 1: Inhibitory Activity Test of Compounds on the Proliferation of HCT-116 MTAP (−/−) Deleted Cells
Materials and cells: HCT-116 MTAP (−/−) deficient cells were purchased from Botron Healthcare (China); RPMI-1640 medium, fetal bovine serum and penicillin-streptomycin were purchased from Thermo Fisher (United States); 384-well plates were purchased from PerkinElmer (United States); and Cell-Titer Glo kits were purchased from Promega (United States).
Cell culture: HCT116 MTAP (−/−) deleted cells were cultured in RPMI 1640 medium containing 10% fetal bovine serum+1% penicillin-streptomycin at 37 °C and 5% CO2. Cells in the logarithmic growth phase may be used for the test.
(§1) Detection of inhibitory activity on cell proliferation: The Cell-Titer Glo kit was used to detect the proliferation inhibitory activity of the compounds on HCT-116 MTAP (−/−) deficient cells. The cell concentration was adjusted, rendering that cells were inoculated into a 384-well plate at 40 μL per well and incubated overnight at 37 °C and 5% CO2. 40 nL of the compound was added into each well to reach a final concentration of 0-10,000 nM (starting concentration: 10,000 nM, 3-fold dilution, 10 points), and the cell plate with 0.1% DMSO content was incubated at 37 °C and 5% CO2 for 8 days. 40 μL of Cell-Titer Glo reagent was added to detect cell activity.

For assay [2], the system named is HCT-116 wild-type cells. Kind of assay: Inhibitory activity on HCT-116 wild-type cell proliferation (Cell-Titer Glo). Particulars: read-out: IC50 HCT-116 wild-type cells, 8 days, 37 °C, 0.1% DMSO. The method, then: Test case 2: Inhibitory activity test of compounds on HCT-116 wild-type cell proliferation Materials and cells: HCT-116 wild-type cells were purchased from Botron Healthcare (China); RPMI-1640 medium, fetal bovine serum and penicillin-streptomycin were purchased from Thermo Fisher (United States); 384-well plates were purchased from PerkinElmer (United States); and Cell-Titer Glo kits were purchased from Promega (United States).
Cell culture: HCT-116 wild-type cells were cultured in RPMI-1640 medium containing 10% fetal bovine serum+1% penicillin-streptomycin at 37 °C and 5% CO2. Cells in the logarithmic growth phase may be used for the test.
as §1, with “of” for “of inhibitory activity on”, “proliferation activity:” for “proliferation:”, “wild-type cell proliferation.” for “MTAP (−/−) deficient cells.”, “2-fold” for “3-fold”

With `C[C@H](c1ccc(C(F)(F)F)cn1)N(C(=O)c1ccc2nc(N)c3cncn3c2c1)C1CC1`, the IC50 in assay [1] was found to be 0.0634 µM; in assay [2], 4.11 µM.
For `Cn1cc(N(Cc2ccc(C(F)(F)F)cc2)C(=O)c2cc3c(cn2)nc(N)c2cncn23)cn1`, in that order: 0.0112 µM and 0.567 µM.
Turning to `Nc1nc2ccc(C(=O)N(Cc3ccc(C(F)(F)F)cn3)C3CC3)cc2n2cnnc12`, the IC50 in assay [1] and in assay [2] was > 3 µM in each case.
For `C[C@H](c1ccc(C2CC2)cc1)N(C)C(=O)c1cc2c(cn1)nc(N)c1cncn12`, the results for the IC50 in assay [1] and in assay [2] were 0.0946 µM and 9.85 µM, respectively.
For `C[C@H](c1ccc(C(F)(F)F)nn1)N(C)C(=O)c1ccc2nc(N)c3cncn3c2c1`, in that order: 0.0717 µM and > 10 µM.
For `C[C@H](c1ccc(C(F)(F)F)cn1)N(C)C(=O)c1cc2c(cn1)nc(N)c1cncn12`, in that order: 0.0133 µM and 2.82 µM.
For `CC(c1ccc(C(F)(F)F)cn1)N(C(=O)c1cc2c(cn1)nc(N)c1cncn12)C1CC1` (stereo not shown), in that order: 0.0724 µM and 4.24 µM.
On to `Cn1cc(N(Cc2ccc(C(F)(F)F)cc2)C(=O)c2ccc3nc(N)c4cncn4c3c2)cn1`, for which the IC50 turned out to be 0.0346 µM in assay [1] and 1.54 µM in assay [2].
For `[2H]C([2H])([2H])N(C(=O)c1cc2c(cc1F)nc(N)c1cncn12)C(C)c1ccc(C(F)(F)F)nn1` (stereo not shown), in that order: 0.0962 µM and > 10 µM.
For `CC(c1ccc(C(F)(F)F)cn1)N(C(=O)c1ccc2nc(N)c3cncn3c2c1)C1CC1` (stereo not shown), in that order: 0.0634 µM and 4.11 µM.
Consider `COC[C@@H](C)N(Cc1ccc(C(F)(F)F)cn1)C(=O)c1ccc2nc(N)c3cncn3c2c1`, for which the IC50 in assay [1] was found to be 0.0045 µM; in assay [2], 0.091 µM.
For the compound `COc1ccc(C(C)N(C(=O)c2cc3c(cc2F)nc(N)c2cncn23)C2CC2)nc1` (stereo not shown), the IC50 in assay [1] is 0.0914 µM; in assay [2], > 10 µM.
`Nc1nc2cc(F)c(C(=O)N(Cc3ccc(C(F)(F)F)cn3)CC(F)(F)F)cc2n2cncc12`: the IC50 in assay [1] is 0.0439 µM; in assay [2], 2.32 µM.
On to `Cc1ccn2c1c(N)nc1ccc(C(=O)N(Cc3ccc(C(F)(F)F)cn3)C3CC3)cc12`, for which, in assay [1], the IC50 amounted to 4.3 µM.
In the case of `CC(c1ncccn1)N(Cc1ccc(C(F)(F)F)cn1)C(=O)c1ccc2nc(N)c3cccn3c2c1` (stereo not shown), the figures for the IC50 in assay [1] and in assay [2] were 0.036 µM and 0.933 µM, respectively.
For `CC(c1ccc(C(F)(F)F)cc1)N(C(=O)c1ccc2nc(N)c3cncn3c2c1)C1CC1` (stereo not shown), in that order: 0.0511 µM and 4.33 µM.
For `CC(c1ccc(C(F)(F)F)nn1)N(C(=O)c1ccc2nc(N)c3cncn3c2c1)C1CC1` (stereo not shown), in that order: 0.337 µM and > 10 µM.
With `Cc1nc(C)n2c1c(N)nc1ccc(C(=O)N(Cc3ccc(C(F)(F)F)cn3)C3CC3)cc12`, in assay [1], the IC50 turned out to be 0.899 µM.
For the compound `Nc1nc2ccc(C(=O)N(Cc3ccc(C(F)(F)F)cn3)C3CC3)cc2c2cccn12`, the IC50 in assay [2] turned out to be 8.7 µM.
As for `CC(c1ccc(C(F)(F)F)nn1)N(C)C(=O)c1cc2c(cc1Cl)nc(N)c1cncn12` (stereo not shown), the IC50 in assay [1] was 0.0247 µM.
Same read-out and setting: the result for `CC(c1ncccn1)N(Cc1ccc(C(F)(F)F)cn1)C(=O)c1ccc2nc(N)c3nccn3c2c1` (stereo not shown) reads 5.08 µM; that for `C[C@@H](c1ccc(C(F)(F)F)cn1)N(C(=O)c1ccc2nc(N)c3cncn3c2c1)C1CC1`, 5.88 µM.
Take `Cc1ncc2c(N)nc3ccc(C(=O)N(Cc4ccc(C(F)(F)F)cn4)C4CC4)cc3n12`: the IC50 in assay [1] is 0.322 µM.
Same read-out and setting: under `Cc1ccc2c(N)nc3ccc(C(=O)N(Cc4ccc(C(F)(F)F)cn4)C4CC4)cc3n12` stands 7.12 µM; under `Nc1nc2ccc(C(=O)N(Cc3ccc(C(F)(F)F)cn3)C3CC3)cc2n2cc(F)cc12`, 1.61 µM; under `Nc1nc2ccc(C(=O)N(Cc3ccc(C(F)(F)F)cn3)C3CC3)cc2n2cccc12`, 3.03 µM.
On the same count and under the same terms, the result for `CC(c1ccc(C(F)(F)F)cn1)N(C(=O)c1ccc2nc(N)c3cccn3c2c1)C1CC1` (stereo not shown) reads 5.08 µM.
